Measurements taken from PMC5954004, “19th European Symposium on Radiopharmacy and Radiopharmaceuticals (ESRR’18)” (EJNMMI Radiopharmacy and Chemistry, 2018).

How the values were obtained:
[1] = system: HER2-expressing SK-OV-3 cells; assay: immunoreactive fraction; assay type: cell-based
[2] = system: HER2-expressing SK-OV-3 cells; assay: internalization capacity; assay type: cell-based; conditions: after 2 h
[3] = system: HER2-expressing SK-OV-3 cells; assay: IC50 on SK-OV-3 cells; assay type: binding
[4] = system: Her-2-positive (HCC1954) cell line; assay: cell binding and internalisation, HCC1954; assay type: cell-based; conditions: HCC1954 cells; for cell binding uptake: at 4nM; for cell binding percentage: at 100nM
Experimental: (§1) Methods: Trastuzumab, dialysed against 50 mM EDTA, washed and recovered in metal-free HEPES buffer, was conjugated with tripodal tris(hydroxypyridinone) (THP) (3.23 mg trastuzumab, 0.8 mM H3THP-Ph-SCN; 260 μL) and purified by size exclusion chromatography (SEC). DOTA-trastuzumab was also prepared similarly. DOTA-trastuzumab was labelled with ^111In chloride at 40°C, pH 5.5 for two hours whereas THP-trastuzumab was labelling with ^67Ga chloride at room temperature, pH 6.5, for 15 minutes. SEC purification was performed when labelling efficiencies were <95%. Radiopharmaceuticals (0.19 MBq/μg) were tested for their internalisation and effects on viability (dye exclusion) and clonogenicity of Her-2-positive (HCC1954) and –negative (MDA-MB-231) cell lines. Microautoradiography of cells in 18% gelatine was also performed.

[5] = system: HCC1954 cells; assay: clonogenicity, HCC1954; assay type: cell-based; conditions: approximately 0.1 Bq/cell
Experimental: as §1

[6] = system: MDA-MB-231 cells; assay: cell binding, MDA-MB-231; assay type: cell-based; conditions: Her-2-negative cell line
Experimental: as §1

| Substance | immunoreactive fraction [1] [%] | internalization [2] [%] | IC50 [3] [nM] | proportion internalised [4] [%] | cell binding uptake [4] [%] | cell binding percentage [4] [%] | surviving fraction [5] | binding in MDA-MB-231 cells [6] [%] |
| --- | --- | --- | --- | --- | --- | --- | --- | --- |
| ^89Zr-DFO-trastuzumab: trastuzumab conjugated with DFO-pPhe-NCS and radiolabeled with 89Zr [reference compound] | 61 | 22.4 ± 1.5 | 2.93 |  |  |  |  |  |
| ^89Zr-DFO-cyclo*-trastuzumab: trastuzumab conjugated with DFO-cyclo*-pPhe-NCS and radiolabeled with 89Zr | 65 | 26.6 ± 1.1 | 2.89 |  |  |  |  |  |
| ^111In-DOTA-trastuzumab |  |  |  | 60.78±15.45 | 6.15±1.64 | 0.83±0.85 | 0.55 ± 0.16 | < 0.2 |
| ^67Ga-THP-trastuzumab: trastuzumab conjugated with tris(hydroxypyridinone) and labelled with 67Ga |  |  |  | 62.08±1.43 | 10.69±1.32 | 1.15±0.98 | 0.38±0.13 | < 0.2 |
